# Values quoted from earlier work, collected in patent publication US10881656B2, “HIF inhibitors and use thereof” (The General Hospital Corporation, priority 2008, dated 2021).
# System: HIF
# Conditions: published; cited from earlier work
structure (smiles),measurement,value
N[C@@H](Cc1ccc([N+]([O-])(CCCl)CCCl)cc1)C(=O)O,Biological Activities,Tumor suppression
